For the test, the target named is T1, E. coli TP (Escherichia coli, UniProt P07650).
T1 construct: purchased Sigma Aldrich T2807-1KU
Briefly: In vitro E. coli thymidine phosphorylase inhibition, spectrophotometric assay at 290 nm. In kind it is biochemical. To be noted: 300 µM thymidine, pH 7.4, 25 °C. As for the experimental part: The adopted protocol is a modification of the original method developed by Khan[51]. TP activity and inhibition assays were based on the phosphorolysis of thymidine to thymine, this conversion results in a significant spectrophotometric decrease. At 290 nm and pH 7.4, thymidine has a higher extinction coefficient than thymine (Δε = −480 M^−1 cm^−1). The absorbance at 290 nm was measured every 2 min for 30 min in 96-well plates at 25 °C.
Thymidine was dissolved in buffer (3 mM). […] All experiments were conducted in triplicate.
The method reported by Khan et al.[51] has been adapted to a screening in 96-well plates (200 µL well, UV-Star® 96-well microplate, Greiner). Each well contained 160 µL of 50 mM KH2PO4 buffer (pH 7.4), 0.006 U of E. coli TP (T2807-1KU, Sigma Aldrich), and 20 µL of the tested compound solution. […] The decrease in absorbance due to conversion of thymidine to thymine was followed during 30 min (PowerWave HT Microplate Reader, Biotek) at 25 °C, with one measure every 2 min and a 30 s shaking before each measure.

Amino acid sequences for entries named in this document (tags omitted). A change or cut given only in a name is not applied to a line headed by its entry.
UniProt P07650: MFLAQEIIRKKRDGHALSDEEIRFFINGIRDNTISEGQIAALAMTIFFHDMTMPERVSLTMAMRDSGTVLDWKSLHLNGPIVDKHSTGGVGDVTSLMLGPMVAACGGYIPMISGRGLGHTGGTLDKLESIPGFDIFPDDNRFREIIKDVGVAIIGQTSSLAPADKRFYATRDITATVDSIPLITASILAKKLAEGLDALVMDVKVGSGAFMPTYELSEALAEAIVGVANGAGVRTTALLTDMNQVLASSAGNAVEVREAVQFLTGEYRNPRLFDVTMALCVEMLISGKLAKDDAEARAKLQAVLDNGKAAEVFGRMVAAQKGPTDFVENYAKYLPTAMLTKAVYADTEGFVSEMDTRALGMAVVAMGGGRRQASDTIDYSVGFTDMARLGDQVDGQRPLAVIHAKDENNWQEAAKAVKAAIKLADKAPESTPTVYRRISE

In the case of `O=c1[nH]c(=O)c2cc[nH]c2[nH]1` [Compound 7-DX, 7-Deazaxanthine, reference compound], it took 28 µM to reach half-maximal inhibition (IC50).

For the origin of these results see PMC8725971, “Polycyclic nitrogen heterocycles as potential thymidine phosphorylase inhibitors: synthesis, biological evaluation, and molecular docking study” (Journal of Enzyme Inhibition and Medicinal Chemistry, 2021).
